The data set deals with C. difficile. Set-up: species or system hamsters. The following applies: hamster, in vivo. As for the experimental part:
Hamsters received one dose of clindamycin orogastrically (10 mg/kg). In some experiments, the hamsters were inoculated orogastrically with 10^3-10^4 C. difficile spores one day after exposure to clindamycin. In other experiments, no spores were given and the Clindamycin-treated hamsters were allowed to acquire infection from their environment. To assess colonization, three fecal pellets were collected from each hamster, and the pellets were solubilized in sterile PBS or ethanol and then swabbed onto C. difficile-selective agar and cultured anaerobically at 36° C. for 24-28 hours. Colonization was considered positive when feces yielded colonies with typical C. difficile morphology that fluoresced green under UV light. Colonized hamsters were assigned to treatment groups that received orogastric treatment with nanocrystalline silver (40-120 mg/kg/day), placebo suspension, or vancomycin (25 mg/kg/day). Prophylactic treatments were given once per day for three days prior to, and on, the day of clindamycin treatment.

The substance Nanocrystalline silver [Nano-Ag] had a colonization of 0%.

These data come from US8425880B1, “Metal-containing materials for treatment of bacterial conditions” (priority 2007, dated 2013).
